In the supplement of paper PMC8183993 one finds nuclei count data, which are given here for 1 compound.

SMILES strings stand for the structures. The lowest values were mostly taken out for another list; the other results follow.

The experiment relates to U2OS. The experiment is described as follows: nuclei count (viability) relative to DMSO (% of DMSO); higher = more viable cells. The settings on record: 10 µM; 24 h. The procedure: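 Primary image-based screen in U2OS cells: compounds at 10 uM for 24 h, then a 1 h o-propargyl-puromycin (OPP) pulse, click labelling, and high-throughput microscopy. Mean cytoplasmic OPP intensity and nuclei count were normalised to DMSO wells within each plate (DMSO = 100) and averaged over triplicate plates.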
With `COc1cc(Br)c(C[N+]2(CCOCCC3CCC4CC3C4(C)C)CCOCC2)cc1OC` (stereo unspecified) [Pinaverium bromide], the nuclei count came out at 107.
